Measurements reported in patent publication US20230372302A1 (priority 2019, published 2023).

Amino acid sequences for entries named in this document (tags omitted).
UniProt P25100, whole entry: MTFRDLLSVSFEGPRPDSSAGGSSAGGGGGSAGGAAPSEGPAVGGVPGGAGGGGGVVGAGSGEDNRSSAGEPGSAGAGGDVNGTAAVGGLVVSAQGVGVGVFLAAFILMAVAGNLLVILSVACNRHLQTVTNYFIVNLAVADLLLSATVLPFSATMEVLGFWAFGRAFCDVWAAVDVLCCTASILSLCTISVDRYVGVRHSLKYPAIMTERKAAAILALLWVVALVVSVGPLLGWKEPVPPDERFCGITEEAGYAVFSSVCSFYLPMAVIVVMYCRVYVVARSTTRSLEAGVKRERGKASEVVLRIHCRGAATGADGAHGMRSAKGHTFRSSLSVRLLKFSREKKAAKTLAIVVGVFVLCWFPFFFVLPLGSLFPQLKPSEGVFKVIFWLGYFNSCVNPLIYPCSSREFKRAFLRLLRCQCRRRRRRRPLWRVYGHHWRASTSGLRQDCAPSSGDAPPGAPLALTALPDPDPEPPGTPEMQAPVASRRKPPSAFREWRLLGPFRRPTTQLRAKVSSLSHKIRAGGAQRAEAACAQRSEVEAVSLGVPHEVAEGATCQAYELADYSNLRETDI
UniProt P35348, whole entry: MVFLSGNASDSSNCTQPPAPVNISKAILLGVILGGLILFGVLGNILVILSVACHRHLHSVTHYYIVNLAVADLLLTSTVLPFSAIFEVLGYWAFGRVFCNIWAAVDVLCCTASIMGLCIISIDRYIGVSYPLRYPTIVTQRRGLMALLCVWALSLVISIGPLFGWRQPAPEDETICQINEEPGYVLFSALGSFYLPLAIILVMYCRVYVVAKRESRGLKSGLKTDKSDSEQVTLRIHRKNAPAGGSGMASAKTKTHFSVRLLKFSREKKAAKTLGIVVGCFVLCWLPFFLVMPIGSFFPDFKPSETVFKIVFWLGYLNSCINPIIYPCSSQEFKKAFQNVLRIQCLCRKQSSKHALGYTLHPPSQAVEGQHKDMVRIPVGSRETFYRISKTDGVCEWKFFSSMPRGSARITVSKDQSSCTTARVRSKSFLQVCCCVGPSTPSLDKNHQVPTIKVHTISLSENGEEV
UniProt P35368, whole entry: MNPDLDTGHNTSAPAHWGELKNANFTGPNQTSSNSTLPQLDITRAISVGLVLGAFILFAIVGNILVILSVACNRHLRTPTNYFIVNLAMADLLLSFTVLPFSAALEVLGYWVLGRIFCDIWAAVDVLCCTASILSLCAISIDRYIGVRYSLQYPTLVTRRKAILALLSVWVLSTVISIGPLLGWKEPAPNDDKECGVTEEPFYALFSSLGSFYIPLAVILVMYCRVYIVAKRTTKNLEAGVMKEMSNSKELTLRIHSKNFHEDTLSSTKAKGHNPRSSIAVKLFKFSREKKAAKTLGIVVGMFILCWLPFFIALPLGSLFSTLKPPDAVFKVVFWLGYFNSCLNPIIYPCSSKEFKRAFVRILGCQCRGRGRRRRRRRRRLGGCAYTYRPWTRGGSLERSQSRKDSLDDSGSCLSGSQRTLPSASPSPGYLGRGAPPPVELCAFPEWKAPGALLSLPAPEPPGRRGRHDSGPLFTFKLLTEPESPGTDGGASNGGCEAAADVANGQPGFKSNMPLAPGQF

Columns and labels:
[1] = test system: alpha 1 subtypes (1A, 1B, 1D); test: Assays of function, antagonism at alpha 1 subtypes; format: cell-based, human; settings: result in words
[2] = target: recombinant human alpha 1D adrenergic receptor (ADR1D) (Homo sapiens, UniProt P25100); test: Radioligand binding, alpha 1D adrenergic receptor (Adr1D)
[3] = target: recombinant human alpha 1A adrenergic receptor (ADR1A) (Homo sapiens, UniProt P35348); test: Radioligand binding, alpha 1A adrenergic receptor (Adr1A); settings: FIG. 2A-2B
[4] = target: recombinant human alpha 1B adrenergic receptor (ADR1B) (Homo sapiens, UniProt P35368); test: Radioligand binding, alpha 1B adrenergic receptor (Adr1B)

CCC(=O)N(c1ccccc1)C1CCN(CCc2ccccc2)CC1
act as antagonists at all alpha 1 subtypes [1]: act as antagonists | less binding affinity for the A-1D subtype than for A-1A and A-1B [2]: 5 fold | binding at alpha 1D (bind all alpha 1 subtypes) ([2]; FIG. 4A-4B): bind all alpha 1 subtypes | binding at alpha 1A (bind all alpha 1 subtypes) [3]: bind all alpha 1 subtypes | greater affinity at the 1B compared to NE [4]: 2 fold | binding at alpha 1B (bind all alpha 1 subtypes) ([4]; FIG. 3A-3B): bind all alpha 1 subtypes | binding affinity (BA) at 1B compared with NE ([4]; comparison in words): greater binding affinity

This is a selection: effects in other tests are not listed, and their absence says nothing.
